## Ab-14 heavy chain CDR variants: yeast mating affinities

Data: MIT Lincoln Laboratory AlphaSeq set, Li et al. 2023, doi:10.1038/s41467-023-39022-2, as distributed in FLAb.

Target: peptide PDVDLGDISGINAS, taken from heptad repeat 2 (HR2) of SARS-CoV-2 spike.

Each scFv is VH, a (GGGGS)3 linker, VL, as in the parent Ab-14, and differs from it in the CDRs of the heavy chain only.
VH: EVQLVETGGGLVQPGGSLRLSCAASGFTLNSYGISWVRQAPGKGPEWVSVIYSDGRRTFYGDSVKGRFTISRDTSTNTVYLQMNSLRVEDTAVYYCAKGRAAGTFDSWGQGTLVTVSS
VL: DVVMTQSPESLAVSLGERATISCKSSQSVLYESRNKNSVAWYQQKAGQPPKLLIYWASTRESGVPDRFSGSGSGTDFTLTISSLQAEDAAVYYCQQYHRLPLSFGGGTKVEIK

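The starting antibody came from a phage panning campaign against this peptide. These sequences belong to a second round, designed from the earlier measurements on random variants of the parent. Their group label is 14H_En_Gibbs (En: ensemble of fine-tuned language models; Gibbs: Gibbs sampling). The scFvs were displayed on barcoded MATa yeast, the peptide on MATalpha yeast. Binding brings cells together so that they mate, and sequencing counts the barcode pairs among the diploids. Scores were corrected for input abundance and mapped to Kd with protein pairs of known affinity run in the same pool. The assay was run in six technical replicates.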

Each variant is given by its three heavy chain CDRs, as the data file delimits them; those of the parent are GFTLNSYGIS, VIYSDGRRTFYGDSVK, GRAAGTFDS.
Values are log10 of the apparent Kd in nM; lower means stronger binding.
A pair that was not seen in that replicate is written "n.d."; this usually means weak binding, but a binder can also be missed.
In the paper, a design with two or fewer of six values counts as a poor binder.
The range of this assay differs from that of the first round, and the authors advise against merging the two.
Nonspecific signal, from three strains lacking the peptide, appeared in 1% of pairings of all heavy chain designs, centred on 2.08 (5% of these signals below 0.84); values are not corrected for it. The control count says in how many pairings with the empty strains this scFv gave a signal, with their mean in brackets.
Of ten entries with the parent sequence, four were seen in most replicates (averages 0.34 to 2.37), three in one and three in none, so single entries are noisy.

CDR-H1	CDR-H2	CDR-H3	log10 Kd (nM) by replicate	signal with controls
GKSLEEYGIS	VIYADGKRNMYANNVK	GHVGYIFMM	n.d. / n.d. / n.d. / n.d. / n.d. / n.d.	0 of 18
GEDLEEYGIS	VIYADGMRQYYVNNVK	GDINDVDDL	n.d. / n.d. / n.d. / n.d. / n.d. / n.d.	0 of 18
GFDINEYGIS	VIFADGMRTAYLNDVK	GQMAGLFIM	n.d. / n.d. / n.d. / n.d. / n.d. / n.d.	0 of 18
GFDLEEYGIS	VIYADGRRTQYTANVK	GGKSGDFFM	n.d. / n.d. / n.d. / n.d. / n.d. / n.d.	0 of 18
GFNLDEYGIS	VIYADGMRRAYSDEVK	GYFSDILLM	n.d. / n.d. / n.d. / 2.02 / n.d. / n.d.	0 of 18
GQDLNEYGIS	VIYADGLRTAYSNNFK	GVQAGFDQG	n.d. / n.d. / n.d. / n.d. / n.d. / n.d.	0 of 18
GFDIEEYGIS	VIYADGRRVAYADSVK	GIDVYGKVM	n.d. / n.d. / n.d. / n.d. / n.d. / n.d.	0 of 18
GDDLEEYGVS	VIYADGRRSSYANSVK	GAIRGTFDS	n.d. / n.d. / n.d. / n.d. / n.d. / n.d.	0 of 18
GFNLEEYGIS	VIYADGKRSVYADSVK	GHISGWFAI	n.d. / n.d. / n.d. / n.d. / n.d. / n.d.	0 of 18
GFDIEEYGIS	VIYADGLRQAYKDNFK	GWNDGTFDV	n.d. / n.d. / n.d. / n.d. / n.d. / n.d.	0 of 18
GKKLDEYGIS	VIYADGKRNFYSNSVK	GGMAGGLFV	n.d. / n.d. / n.d. / n.d. / n.d. / n.d.	0 of 18
GQDLDEYGVS	VIYADGQRTQYTNDVK	GNYSGAFII	n.d. / n.d. / n.d. / n.d. / n.d. / n.d.	0 of 18
GFSLDEYGIS	VIYADGVRKHYADSVK	GNIAGYLFA	n.d. / n.d. / n.d. / n.d. / n.d. / n.d.	1 of 18 (1.04)
GFNLDEYGIS	VIYADGKRCQYANTVK	GELAGFFML	n.d. / n.d. / n.d. / n.d. / n.d. / n.d.	0 of 18
GQDLSEYGIS	VIYADGVRRSYANSVK	GNTSGNFSS	n.d. / n.d. / n.d. / n.d. / n.d. / n.d.	0 of 18
FQLLDDYGIS	VIYADGKRVAYVADVK	GNVAGTFDV	1.00 / 0.92 / 0.68 / 0.95 / 1.30 / 0.88	0 of 18
GFDINEYGIS	VIYADGRRKAYADAVK	GIDVYGKTV	n.d. / n.d. / n.d. / n.d. / n.d. / n.d.	1 of 18 (2.33)
GQDLNEYGIS	VIYADGRRTMYANDVK	GHQGGIFED	n.d. / n.d. / n.d. / n.d. / n.d. / n.d.	0 of 18
GDSLDEYGIS	VIYADGQRVQYVDPFK	GEQAGNVDV	n.d. / n.d. / n.d. / n.d. / n.d. / n.d.	0 of 18
GNNLDEYGIS	VIYADGQRSAYAQSVK	GETGDNAMT	n.d. / 2.62 / n.d. / n.d. / n.d. / n.d.	0 of 18
GFDIDEYGVS	VIYADGFREAYAESVK	GLQQFGFTV	0.02 / 0.70 / 0.24 / -0.11 / -0.39 / -0.26	0 of 18
GKTLDEYGIS	VIYADGMRTSYIDSVK	GGIDGWRMI	n.d. / n.d. / n.d. / n.d. / n.d. / n.d.	0 of 18
GFKIEEYGIS	VIYADGQRMMYASNFK	GKIAGTFNL	0.70 / 0.65 / 0.72 / 0.42 / 0.69 / 0.11	0 of 18
GFDLEEYGIS	VIYADGMRNAYTANVK	GGKSGDFFM	n.d. / n.d. / n.d. / n.d. / n.d. / n.d.	0 of 18
GFKLDEYGIS	VIYADGQRKSYADSVK	GQINVYVTA	n.d. / n.d. / n.d. / n.d. / n.d. / n.d.	0 of 18
GQDLNEYGIS	VIYADGKRTAYLQNVK	GVNAGFDQY	n.d. / n.d. / n.d. / n.d. / n.d. / n.d.	0 of 18
GYDIEEYGVS	VIYADGKRNAYANSVK	GKWAGAFVD	n.d. / n.d. / n.d. / n.d. / n.d. / n.d.	0 of 18
GFDINEYGIS	VIYADGQREYYAESVK	GFNQTINLV	n.d. / n.d. / 2.92 / n.d. / n.d. / n.d.	0 of 18
GFILGEYGIS	VIYADGERTMYSNRVK	GNEAGTFDF	0.80 / 1.28 / 0.82 / 0.70 / 0.85 / 1.24	0 of 18
GFDLDEYGVS	VIYADGIRCTYADAVK	GKHGGAFFV	n.d. / n.d. / n.d. / n.d. / n.d. / n.d.	1 of 18 (2.92)
GFDIQEYGIS	VIYADGQRKAYHQSVK	GAGDITAVV	n.d. / n.d. / n.d. / n.d. / n.d. / n.d.	0 of 18
GFDLMEYGIS	VIYADGKRTGYTDKVK	GWFGDTGKT	n.d. / n.d. / n.d. / n.d. / n.d. / n.d.	0 of 18
GFDLAEYGVS	VIYADGKRTEYSDHVK	GENGGFFDL	n.d. / n.d. / n.d. / 1.68 / n.d. / n.d.	1 of 18 (2.13)
GFSLEEYGIS	VIYADGMRTFYTDKVK	GNLDAQEGY	n.d. / n.d. / n.d. / n.d. / n.d. / 2.79	1 of 18 (2.00)
GEDLNEYGVS	VIYADGIRSTYADSFK	GKHGAAFFV	n.d. / n.d. / n.d. / n.d. / n.d. / n.d.	0 of 18
GFNLDEYGVS	VIYADGKRCQYANTVK	GENAGFFML	n.d. / n.d. / n.d. / n.d. / n.d. / n.d.	0 of 18
GFFLDEYGIS	VIYADGMRTAYKDKVK	GSDTGLGWF	n.d. / n.d. / n.d. / n.d. / n.d. / n.d.	0 of 18
GFDINEYGIS	VMYADGSRVAYRDDVK	GFWGGTFDM	-0.47 / -0.16 / n.d. / n.d. / n.d. / n.d.	0 of 18

The first 6 variants above that were never detected:

{"CDR-H1": "GKSLEEYGIS", "CDR-H2": "VIYADGKRNMYANNVK", "CDR-H3": "GHVGYIFMM", "log10 Kd (nM) by replicate": "n.d. / n.d. / n.d. / n.d. / n.d. / n.d.", "signal with controls": "0 of 18"}
{"CDR-H1": "GEDLEEYGIS", "CDR-H2": "VIYADGMRQYYVNNVK", "CDR-H3": "GDINDVDDL", "log10 Kd (nM) by replicate": "n.d. / n.d. / n.d. / n.d. / n.d. / n.d.", "signal with controls": "0 of 18"}
{"CDR-H1": "GFDINEYGIS", "CDR-H2": "VIFADGMRTAYLNDVK", "CDR-H3": "GQMAGLFIM", "log10 Kd (nM) by replicate": "n.d. / n.d. / n.d. / n.d. / n.d. / n.d.", "signal with controls": "0 of 18"}
{"CDR-H1": "GFDLEEYGIS", "CDR-H2": "VIYADGRRTQYTANVK", "CDR-H3": "GGKSGDFFM", "log10 Kd (nM) by replicate": "n.d. / n.d. / n.d. / n.d. / n.d. / n.d.", "signal with controls": "0 of 18"}
{"CDR-H1": "GQDLNEYGIS", "CDR-H2": "VIYADGLRTAYSNNFK", "CDR-H3": "GVQAGFDQG", "log10 Kd (nM) by replicate": "n.d. / n.d. / n.d. / n.d. / n.d. / n.d.", "signal with controls": "0 of 18"}
{"CDR-H1": "GFDIEEYGIS", "CDR-H2": "VIYADGRRVAYADSVK", "CDR-H3": "GIDVYGKVM", "log10 Kd (nM) by replicate": "n.d. / n.d. / n.d. / n.d. / n.d. / n.d.", "signal with controls": "0 of 18"}